We go through two substances from US20210403542A1.

Experiment [1] has as its target BAN0805. Kind of experiment: inhibition ELISA; concentration of α-synuclein protofibril (as monomer equivalents) varied against BAN0805; coated antigen not given. A general note: ELISA stands for enzyme-linked immunosorbent assay.
Experiment [2] deals with BAN0805. Kind of experiment: inhibition ELISA; concentration of α-synuclein monomer varied against BAN0805 (hu47-IgG4); coated antigen not named in the filing [table under the graph].
Experiment [3] deals with BAN0805. In words: inhibition ELISA; concentration of α-synuclein monomer varied against BAN0805; coated antigen not given.

Take “human α-synuclein protofibril (from UniProt P37840 1-140)”: the IC50 (read off the curve) in the experiment with BAN0805 [1] came to 1 nM.

The term IC50 denotes the concentration at which inhibition is half-maximal. A low value points to greater potency. Turning to “α-synuclein monomer (from UniProt P37840 1-140)”, the IC50 with BAN0805 [2] was 1310 nM. Also, in the experiment with BAN0805 [3], the IC50 (read off the curve) turned out to be 1000 nM.
